The chains behind the UniProt entries cited, without tags or fusion partners. Where a name states a change or a piece, a line headed by the entry shows the natural chain unless it says otherwise. Residues count along the entry.
UniProt O96017, whole entry, species assumed: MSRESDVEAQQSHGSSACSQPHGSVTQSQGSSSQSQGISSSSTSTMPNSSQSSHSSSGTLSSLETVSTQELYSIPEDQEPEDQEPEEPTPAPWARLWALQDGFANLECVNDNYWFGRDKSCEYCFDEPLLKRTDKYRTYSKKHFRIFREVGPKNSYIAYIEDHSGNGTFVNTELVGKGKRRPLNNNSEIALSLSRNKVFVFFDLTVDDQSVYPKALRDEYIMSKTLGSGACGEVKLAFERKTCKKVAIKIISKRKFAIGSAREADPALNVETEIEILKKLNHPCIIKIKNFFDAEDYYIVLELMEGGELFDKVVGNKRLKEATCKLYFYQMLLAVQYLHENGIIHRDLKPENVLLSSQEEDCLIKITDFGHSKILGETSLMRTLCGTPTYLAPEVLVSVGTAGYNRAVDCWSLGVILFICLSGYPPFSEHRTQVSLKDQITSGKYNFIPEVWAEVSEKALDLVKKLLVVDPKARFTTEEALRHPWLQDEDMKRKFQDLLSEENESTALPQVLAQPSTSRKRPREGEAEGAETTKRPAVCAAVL
UniProt P16234, 24-1089, species assumed: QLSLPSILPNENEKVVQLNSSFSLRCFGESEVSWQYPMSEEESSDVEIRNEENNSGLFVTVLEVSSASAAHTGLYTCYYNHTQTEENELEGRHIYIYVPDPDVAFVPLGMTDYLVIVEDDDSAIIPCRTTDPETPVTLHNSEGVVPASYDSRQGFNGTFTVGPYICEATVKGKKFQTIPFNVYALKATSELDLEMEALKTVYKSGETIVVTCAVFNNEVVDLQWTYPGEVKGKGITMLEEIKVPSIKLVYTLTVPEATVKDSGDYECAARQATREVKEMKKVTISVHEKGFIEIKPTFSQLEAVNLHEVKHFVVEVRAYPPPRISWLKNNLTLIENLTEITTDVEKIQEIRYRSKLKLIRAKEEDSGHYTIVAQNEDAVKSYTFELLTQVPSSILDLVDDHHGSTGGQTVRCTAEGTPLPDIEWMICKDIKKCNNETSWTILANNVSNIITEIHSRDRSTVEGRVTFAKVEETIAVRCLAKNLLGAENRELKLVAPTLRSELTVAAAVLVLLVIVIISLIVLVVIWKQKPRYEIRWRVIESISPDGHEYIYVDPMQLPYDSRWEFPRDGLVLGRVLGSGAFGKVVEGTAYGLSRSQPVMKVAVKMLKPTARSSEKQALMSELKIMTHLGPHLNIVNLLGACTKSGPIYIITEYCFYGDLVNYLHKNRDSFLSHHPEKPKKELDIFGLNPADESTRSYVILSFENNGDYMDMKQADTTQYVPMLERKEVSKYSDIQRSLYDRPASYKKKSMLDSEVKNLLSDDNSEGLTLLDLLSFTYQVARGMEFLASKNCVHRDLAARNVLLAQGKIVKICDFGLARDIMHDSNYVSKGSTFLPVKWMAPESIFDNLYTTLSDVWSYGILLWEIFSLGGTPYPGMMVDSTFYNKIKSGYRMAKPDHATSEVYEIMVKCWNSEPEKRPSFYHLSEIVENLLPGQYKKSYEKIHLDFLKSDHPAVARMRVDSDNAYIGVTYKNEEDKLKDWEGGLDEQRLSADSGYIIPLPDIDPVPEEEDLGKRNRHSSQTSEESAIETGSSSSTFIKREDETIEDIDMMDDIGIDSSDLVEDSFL
UniProt P23443: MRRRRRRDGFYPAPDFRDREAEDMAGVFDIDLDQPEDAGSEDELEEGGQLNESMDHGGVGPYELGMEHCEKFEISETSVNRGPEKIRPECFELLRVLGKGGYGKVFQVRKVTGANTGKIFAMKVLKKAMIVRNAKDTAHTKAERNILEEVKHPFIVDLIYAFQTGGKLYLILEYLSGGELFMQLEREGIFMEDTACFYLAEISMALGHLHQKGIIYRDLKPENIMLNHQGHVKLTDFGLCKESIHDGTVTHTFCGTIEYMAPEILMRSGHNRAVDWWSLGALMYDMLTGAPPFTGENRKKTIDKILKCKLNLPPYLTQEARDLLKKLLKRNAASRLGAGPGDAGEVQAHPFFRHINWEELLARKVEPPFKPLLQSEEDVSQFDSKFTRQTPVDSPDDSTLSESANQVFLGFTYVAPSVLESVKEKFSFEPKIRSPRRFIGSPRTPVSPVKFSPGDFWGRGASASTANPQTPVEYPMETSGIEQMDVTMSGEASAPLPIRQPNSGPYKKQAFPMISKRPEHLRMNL
UniProt P22607, 23-806, species assumed: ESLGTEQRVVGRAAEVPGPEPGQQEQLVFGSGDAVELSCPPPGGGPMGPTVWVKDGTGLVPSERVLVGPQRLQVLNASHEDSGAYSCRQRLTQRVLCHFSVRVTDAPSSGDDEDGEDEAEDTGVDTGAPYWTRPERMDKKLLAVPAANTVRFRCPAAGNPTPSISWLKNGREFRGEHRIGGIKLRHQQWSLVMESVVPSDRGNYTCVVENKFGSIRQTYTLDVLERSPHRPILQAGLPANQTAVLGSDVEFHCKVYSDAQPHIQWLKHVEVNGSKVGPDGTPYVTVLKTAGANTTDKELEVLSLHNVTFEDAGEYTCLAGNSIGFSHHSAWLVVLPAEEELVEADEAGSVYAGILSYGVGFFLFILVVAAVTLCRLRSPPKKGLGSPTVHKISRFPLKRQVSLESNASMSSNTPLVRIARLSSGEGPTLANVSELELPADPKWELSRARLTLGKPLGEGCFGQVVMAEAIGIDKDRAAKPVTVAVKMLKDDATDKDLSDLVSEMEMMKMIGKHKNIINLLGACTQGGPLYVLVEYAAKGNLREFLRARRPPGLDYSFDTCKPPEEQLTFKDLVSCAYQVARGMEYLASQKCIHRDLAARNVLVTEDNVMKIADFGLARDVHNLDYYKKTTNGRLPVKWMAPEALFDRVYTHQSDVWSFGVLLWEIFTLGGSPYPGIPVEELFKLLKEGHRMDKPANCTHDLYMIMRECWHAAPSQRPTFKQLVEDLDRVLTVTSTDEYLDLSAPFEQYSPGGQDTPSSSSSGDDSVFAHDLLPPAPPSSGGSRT
UniProt P00519, whole entry, species assumed: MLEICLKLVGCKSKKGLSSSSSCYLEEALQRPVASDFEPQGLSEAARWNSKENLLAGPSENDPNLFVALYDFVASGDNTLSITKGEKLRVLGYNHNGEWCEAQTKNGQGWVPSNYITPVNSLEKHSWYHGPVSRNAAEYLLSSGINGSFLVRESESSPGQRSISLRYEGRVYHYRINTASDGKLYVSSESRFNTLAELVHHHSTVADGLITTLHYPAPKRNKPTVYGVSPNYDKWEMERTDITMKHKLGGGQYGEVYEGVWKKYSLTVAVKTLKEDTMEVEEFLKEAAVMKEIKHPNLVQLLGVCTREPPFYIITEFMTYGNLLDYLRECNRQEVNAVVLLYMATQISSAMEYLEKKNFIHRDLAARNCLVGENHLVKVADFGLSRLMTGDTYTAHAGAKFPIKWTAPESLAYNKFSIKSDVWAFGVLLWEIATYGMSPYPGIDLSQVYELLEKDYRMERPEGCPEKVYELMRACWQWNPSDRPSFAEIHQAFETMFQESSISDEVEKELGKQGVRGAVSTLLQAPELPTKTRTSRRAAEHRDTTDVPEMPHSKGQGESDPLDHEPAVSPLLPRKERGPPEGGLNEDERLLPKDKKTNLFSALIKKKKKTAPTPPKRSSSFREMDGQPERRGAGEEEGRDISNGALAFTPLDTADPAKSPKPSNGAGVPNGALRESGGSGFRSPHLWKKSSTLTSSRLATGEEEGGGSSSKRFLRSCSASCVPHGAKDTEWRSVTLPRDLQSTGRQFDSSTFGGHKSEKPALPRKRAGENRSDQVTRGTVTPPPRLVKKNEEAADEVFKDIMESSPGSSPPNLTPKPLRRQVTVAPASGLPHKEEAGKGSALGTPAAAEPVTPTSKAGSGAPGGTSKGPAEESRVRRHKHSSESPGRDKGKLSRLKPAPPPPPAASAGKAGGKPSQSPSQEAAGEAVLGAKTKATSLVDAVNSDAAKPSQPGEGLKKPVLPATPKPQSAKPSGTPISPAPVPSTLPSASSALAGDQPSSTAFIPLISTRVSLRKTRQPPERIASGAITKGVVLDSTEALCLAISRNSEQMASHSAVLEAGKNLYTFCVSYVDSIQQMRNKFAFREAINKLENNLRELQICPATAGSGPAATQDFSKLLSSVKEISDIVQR

According to patent US7189729B2, “Methods and compositions as protein kinase inhibitors” (IRM LLC, priority 2003, dated 2007):

Legend:
Assay in all cases: biochemical
[1] = target: CHK2 (Homo sapiens, UniProt O96017); details: read-out: percentage inhibition of CHK2
[2] = target: PDGFRα (Homo sapiens, UniProt P16234); details: read-out: percentage inhibition of PDGFRα
[3] = target: PKCα (Homo sapiens, UniProt P17252); details: read-out: percentage inhibition of PKCα
[4] = target: p70S6K (Homo sapiens, UniProt P23443); details: read-out: percentage inhibition of p70S6K
[5] = target: c-RAF (Homo sapiens, UniProt P04049); details: read-out: percentage inhibition of c-RAF
[6] = target: FGFR3 (Homo sapiens, UniProt P22607); details: read-out: percentage inhibition of FGFR3
[7] = target: Abl (Homo sapiens, UniProt P00519); details: read-out: percentage inhibition of Abl

CN1CCN(Cc2ccc(C(=O)Nc3cccc(Nc4ccccc4-c4cc(Nc5cccc(N(C)C)c5)ncn4)c3)cc2)CC1 [Example 1, N-(3-{2-[6-(3-Dimethylamino-phenylamino)-pyrimidin-4-yl]-phenylamino}-phenyl)-4-(4-methyl-piperazin-1-ylmethyl)-benzamide]
inhibition at 10 µM [1]: 59% | inhibition at 10 µM [2]: 71% | inhibition at 10 µM [3]: 64% | inhibition at 10 µM [4]: 79% | inhibition at 10 µM [5]: 96% | inhibition at 10 µM [6]: 56% | inhibition at 10 µM [7]: 90%
